Data published in PMC7140114 (Cancers, 2020).

How the values were obtained:
[1] = tested on: MDA-MB-468 cells; assay: In vitro cytotoxicity (CellTiter-Glo, 7 days), MDA-MB-468; assay type: cell-based, human; conditions: MDA-MB-468, HER2−
Protocol: Human HER2-positive cell lines (BT-474, HCC1954, and NCI-N87) and HER2-negative cell lines (MCF-7 and MDA-MB-468) were purchased from the ATCC. Tumor cells were cultured in Roswell Park Memorial Institute (RPMI)-1640 medium (Cellgro, Manassas, VA, USA) supplemented with 10% fetal bovine serum (Invitrogen, Carlsbad, CA, USA) and GlutaMAX (Invitrogen, Carlsbad, CA, USA). Cells (3.3 × 10^4 cells/well) were added to each well of 384-well plates and incubated at 37 °C overnight, after which 10 μL of compound aliquots were added to the assay plate. […] Then, the plates were removed from the incubator and equilibrated at room temperature for 10 min. The Cell Titer Glo® (CTG, Promega, Madison, WI, USA) reagents were incubated at 37 °C before the experiment. The buffer was equilibrated to room temperature and used to dissolve the substrate. Then, 40 μL of CTG reagent was added to each well for detection (at 1:1 ratio to the culture medium).

[2] = tested on: MCF-7 cells; assay: In vitro cytotoxicity (CellTiter-Glo, 7 days), MCF-7; assay type: cell-based, human; conditions: MCF-7, HER2−
Protocol: (§1) Human HER2-positive cell lines (BT-474, HCC1954, and NCI-N87) and HER2-negative cell lines (MCF-7 and MDA-MB-468) were purchased from the ATCC. Tumor cells were cultured in Roswell Park Memorial Institute (RPMI)-1640 medium (Cellgro, Manassas, VA, USA) supplemented with 10% fetal bovine serum (Invitrogen, Carlsbad, CA, USA) and GlutaMAX (Invitrogen, Carlsbad, CA, USA). Cells (3.3 × 10^4 cells/well) were added to each well of 384-well plates and incubated at 37 °C overnight, after which 10 μL of compound aliquots were added to the assay plate. The plate was incubated for 7 days at 37 °C, 5% CO2, and 95% humidity. Then, the plates were removed from the incubator and equilibrated at room temperature for 10 min. The Cell Titer Glo® (CTG, Promega, Madison, WI, USA) reagents were incubated at 37 °C before the experiment. The buffer was equilibrated to room temperature and used to dissolve the substrate. Then, 40 μL of CTG reagent was added to each well for detection (at 1:1 ratio to the culture medium). Luminescence was detected using an EnSpire plate reader, and Prism5 for Windows (GraphPad software, Inc., La Jolla, CA, USA) was used for data analysis, including the 50% inhibition concentration (IC50) calculations.

[3] = tested on: HCC1954 cells; assay: In vitro cytotoxicity (CellTiter-Glo, 7 days), HCC1954; assay type: cell-based, human; conditions: HCC1954, HER2+++
Protocol: as §1

[4] = tested on: BT-474 cells; assay: In vitro cytotoxicity (CellTiter-Glo, 7 days), BT-474; assay type: cell-based, human; conditions: BT-474, HER2+++, 7 days
Protocol: as §1

[5] = tested on: NCI-N87 xenograft; assay: NCI-N87 gastric cancer xenograft in BALB/c nude mice; assay type: in vivo; conditions: therapeutic doses
Protocol: Female BALB/c nude mice (6–8 weeks old; approximately 22 g) were purchased from Beijing Ankaiyibo Biological Technology Co. Ltd. (Beijing, China), and were acclimated for 1 week before the experiment. The mice were inoculated subcutaneously with approximately 5 × 10^6 NCI-N87 gastric cancer cells in 0.2 mL of serum-free RPMI-1640 medium for tumor development. When the tumors reached a volume of ~120 mm^3, the mice were randomly divided into treatment and vehicle control groups (n = 6/group). […] The tumor volumes were monitored 2–3 times per week during the treatment period, and were calculated using the formula: TV = a × b^2/2, where “a” and “b” are the long and short diameters of each tumor, respectively. All animal studies were performed according to the guidelines approved by the Institutional Animal Care and Use Committee (IACUC) of Pharmaron Co., Ltd. following the guidance of the Association for Assessment and Accreditation of Laboratory Animal Care (AAALAC) under license number ON-CELL-XEM-06012017 on 1 June 2017.

[6] = tested on: BT-474 cells; assay: Confocal trafficking / internalization assay; assay type: cell-based, human; conditions: 37 °C for 16 h
Protocol: The Zenon™ pHrodo™ iFL red human IgG labeling reagent (Z25612), NucBlue™ Live ReadyProbes™ reagent (R37605), and CellLight™ Lysosomes-GFP, BacMam 2.0 (C10507) were purchased from Invitrogen (Carlsbad, CA, USA). BT-474 cells were seeded at a density of 2 × 10^4 cells/well in 24-well plates containing glass covers and lips and incubated at 37 °C overnight. […] After washing the wells with ice-cold phosphate buffered solution (PBS), the cells were exposed on the chamber coverslip by a Cytospin, fixed with 4% paraformaldehyde for 10 min, and permeabilized with 0.2% Triton X-100 for 5 min. […] The lysosomes were labeled with a lysosomal-associated membrane protein 1 (LAMP-1) antibody followed by an Alexa Fluor 568-labeled goat anti-mouse IgG (H + L). The cell nuclei were stained with 4′,6-diamidino-2-phenylindole (DAPI). Fluorescence images were obtained using a Nikon A1 confocal microscope (Nikon, Corp., Tokyo, Japan).

[7] = tested on: NCI-N87 xenograft; assay: In vivo fluorescence imaging (DyLight 680 label) in NCI-N87 xenograft; design: species or system mice; conditions: 10 mg/kg i.v., DyLight 680-labeled
Protocol: We further quantified the total fluorescence value and maximum fluorescence intensity of the tumors in the test animals. […] In addition, one mouse in the ADC dose group was randomly selected for tissue dissection and imaging in vitro after 32 h of administration.
The in vivo fluorescence imaging experiments were investigated using an NCI-N87 Balb/c-nude mice xenograft model. […] When the tumor size reached approximately ~400 mm^3, mice in the two groups were injected via the tail veins with the dose of 10 mg/kg, while an equal volume of vehicle was injected as a control. The mice were imaged under anesthesia at the indicated time points (6, 24, 48, 72, 120, 192, 288, and 360 h) using the IVIS® SpectrumTM imaging system (PE, Waltham, MA, USA), and the data were analyzed using Living Image® software (version number: 4.3.1, Waltham, MA, USA).

| Compound | Max. Inhibition [1] [%] | IC50 [2] [µM] | Max. Inhibition [2] [%] | IC50 [3] [µM] | Max. Inhibition [3] [%] | IC50 [4] [µM] | Max. Inhibition [4] [%] | Body weight during treatment and observation period [5] | Internalization and lysosomal colocalization [6] | IC50 [1] [µM] | Time for which image of tumor localization was maintained [7] |
| --- | --- | --- | --- | --- | --- | --- | --- | --- | --- | --- | --- |
| CCC(C)C(C(CC(=O)N1CCCC1C(OC)C(C)C(=O)NC(C)C(O)c1ccccc1)OC)N(C)C(=O)C(NC(=O)C(NC)C(C)C)C(C)C (centres unmarked) [MMAE, Monomethyl auristatin E, reference compound] | 87.37 | – | – | – | – | – | – | – | – | – | – |
| mil40 | – | > 3.44 | 49.43 | 1.75 | 70.36 | 0.00078 | 65.45 | no significant weight loss | internalized into the tumor cells and colocalized with the lysosomal markers | 1.39 | more than 12 days |
